In patent US5459256A, “Lipophilic, aminohydrolase-activated prodrugs” (priority 1991, dated 1995):

Assay: physchem
Settings: octanol/ph 7.0 buffer, pH 7, Log P
Experimental: Measurement of Octanol-Water Partition Coefficients.
n-Octanol-water partition coefficients (P) were determined by a microscale shake-flask procedure, (Ford, H. et al Abstracts of Papers, 200th National Meeting of the American Chemical Society, Washington, D.C.; American Chemical Society: Washington, D.C., 1990; CARB 13) which was modification of an earlier method (Nahum, A. & Horvath, C. J. Chromatogr. 1980, 192, 315). A 20 μL aliquot of a 0.5 mg/mL DMSO solution of the dideoxynucleoside was dissolved in 1.0 mL of octanol-saturated, pH 7.0, 0.01M potassium phosphate buffer. This was mixed thoroughly with 1.0 ml of buffer-saturated n-octanol in a 2-mL Mixxor apparatus at 24°-26° C. and then allowed to stand for 15 min. The phases were separated, centrifuged at 600×g for 5 min, and the relative concentration of sample in each phase determined by HPLC analysis of a 50 μl aliquot. The partition coefficient was calculated by dividing the absolute area of the appropriate integrated peak from the octanol phase by that of the buffer phase (Table I).
Octanol/pH 7.0 buffer partition coefficients were determined using a newly developed microscale method. […] The addition of a methyl group normally increases the log P value of a compound by about 0.5.

Nc1ncnc2c1ncn2[C@@H]1O[C@H](CO)C[C@@H]1F [Compound 1a, 2', 3'-dideoxy-2'-fluoroarabinosyladenine, reference compound]
logD: -0.18 ± 0.01
